Reference: article PMC5147862, “The RAS-Effector Interface: Isoform-Specific Differences in the Effector Binding Regions” (PLoS ONE, 2016)

Target: T1, HRAS, mGppNHp-bound (human, UniProt P01112 1-189)
T1 construct: human HRAS; Loaded with the fluorescent non-hydrolysable GTP analog mant-GppNHp (mGppNHp); That the RAS proteins are the ones made with pGEX is surmised
Experiment: fluorescence polarisation; MBP-tagged effector domain (0.05-100 μM) titrated to 1 μM RAS-mGppNHp; 50 mM Tris/HCl pH 7.5, 100 mM NaCl, 5 mM MgCl2, 3 mM dithiothreitol, 25°C; quadratic ligand binding equation
Conditions: both partners purified

B1: RAS association (RA) domain of PLCε, MBP fusion (domain or fragment, human, UniProt Q9P212 2130-2240, looked up)
chain: LSSEEESFFVQVHDVSPEQPRTVIKAPRVSTAQDVIQQTLCKAKYSYSILSNPNPSDYVLLEEVVKDTTNKKTTTPKSSQRVLLDQECVFQAQSKWKGAGKFILKLKEQVQ
notes: human PLCε, RA domain (RA2), aa 2130-2240; also called PLCε-RA2
Kd: 3.7 µM
